Screening results as filed in PubChem.
Many of the other results were omitted from the sample, so hits are more common in it than they were.
GIV Gai3 FP: GIV-Galpha-i interaction inhibition; P08753; Galpha-i3/FITC-GIV peptide fluorescence polarization, 90 min; active compounds read low; scaled: aluminum fluoride 0%, vehicle 100%; percent of control (FP), % (no concentration beside the values); 210,000 compounds, 0.42% hits; AID 1224905;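 active means replicate mean at 85% of control or lower, very high polarization wells dropped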;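 further: wells of about 15 µL received 100 nL stock; the first replicate is given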
HCMV UL50-53 inh: inhibitors of HCMV UL50-UL53 interaction, biochemical, HTRF. HCMV UL50-UL53 nuclear egress complex (human cytomegalovirus). normalized percent inhibition. inhibition, % (no concentration beside the values). 190,000 tested, 0.15% active. AID 1918969, 2023; in the data active = inhibition above about 27%, passing the limit was not always enough
GIV-Gai FP conf: inhibitors of GIV peptide binding to Galpha-i3, confirmation, biochemical, fluorescence polarization, FITC-GIV peptide, rat Galphai3; shares compounds with GIV Gai3 FP; stronger effect = lower value; fluorescence polarization, mP at 100 µM; 580 tested, 38% active; AID 1259350, 2017;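 active = inhibition score of 15 or more, meaning 100 minus mean polarization as percent of control over three replicates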
GIV Gai AS conf: inhibitors of GIV binding to Galpha-i3, confirmation, orthogonal assay for GIV-Galpha-i inhibitor project, biochemical, AlphaScreen, His-GIV, GST-Galphai3 | shares compounds with GIV Gai3 FP | purified proteins, 90 min; stronger effect = lower value | AlphaScreen counts at 100 µM | 580 tested, 39% active;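 active = inhibition score at or above a set limit, where the score is 100 minus the three-replicate mean percent of control signal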
Active calls of the source: *; x = no result given.

[1] Cc1ccc(/C=N/c2sccc2C#N)cc1
[2] N#Cc1ccsc1/N=C/c1ccccc1
[3] COc1cc(/C=C2\C(=O)NC(=O)N(c3ccc(C(C)(C)C)cc3)C2=O)ccc1OCC(=O)O
[4] Cc1cc2ncc(S(=O)(=O)C(C)(C)C)c(N)n2n1
[5] CC(C)c1cc(-c2nnc3sc(-c4ccncc4)nn23)n[nH]1
[6] COc1ccccc1-c1nn2c(-c3cc(C(C)C)[nH]n3)nnc2s1
[7] N#Cc1c(SCC(=O)c2ccc(F)cc2)nsc1SCC(=O)c1ccc(F)cc1
[8] CC(O)c1nc2ccccc2n1C (centres undefined)
compound no. | 1 | 2 | 3 | 4 | 5 | 6 | 7 | 8
GIV Gai3 FP | 48* | 106 | 110 | 108 | 85* | 102 | 115 | x
HCMV UL50-53 inh | -10 | -24 | -22 | -22 | -23 | 0 | -8 | -4
GIV-Gai FP conf | 40* | x | x | x | 63 | x | x | x
GIV Gai AS conf | 10146* | x | x | x | 12549* | x | x | x

[9] O=c1cc(Cn2nc3c(-c4nc(-c5ccccc5)no4)cccn3c2=O)nc2ccccn12
[10] CCOC(=O)Cn1nc2c(-c3nc(-c4ccc(Cl)cc4)no3)cccn2c1=O
[11] CCOc1cc(N2CCOCC2)c(OCC)cc1NC(=O)CCNS(=O)(=O)c1cc(C)ccc1C
[12] Oc1ccc2ccccc2c1C=NCc1cn2ccsc2n1
[13] Oc1ccc2ccccc2c1C=NCc1cccnc1
[14] COc1ccc(NC(=O)c2sc3nc4c(c(-c5ccco5)c3c2N)CCCC4)cc1
[15] COc1ccc(NC(=O)c2sc3nc4c(c(-c5ccco5)c3c2N)CCCCC4)cc1
[16] COc1cc(C(=O)NN2CCN(C)CC2)cc(OC)c1OC
compound no. | 9 | 10 | 11 | 12 | 13 | 14 | 15 | 16
GIV Gai3 FP | 90 | 106 | x | x | 5.4* | 84* | 106 | 104
HCMV UL50-53 inh | x | x | -8 | 20 | -8 | x | x | x
GIV-Gai FP conf | 42* | x | x | x | 24* | 65 | x | x
GIV Gai AS conf | 27964 | x | x | x | 5898* | 55254 | x | x

Rewritten with tabs: part of the list above
no.	SMILES	GIV Gai3 FP	HCMV UL50-53 inh	GIV-Gai FP conf	GIV Gai AS conf
13	Oc1ccc2ccccc2c1C=NCc1cccnc1	5.4*	-8	24*	5898*
14	COc1ccc(NC(=O)c2sc3nc4c(c(-c5ccco5)c3c2N)CCCC4)cc1	84*	x	65	55254

(list continues)
[17] O=C1NC(=O)c2cccc3cccc1c23
[18] O=C1C=C(O)c2cccc3cccc1c23
[19] Cc1c(CC#N)ccc2ccccc12
[20] Cc1ccc(C(C)(C)CC(=O)O)cc1
[21] Cc1ccccc1N/C(SCc1ccccc1F)=C(/C#N)C(=O)NCc1cccs1
[22] O=C(N=Nc1c2ccccc2c2nc3no[nH]c3nc12)c1ccccc1O
[23] O=C(N=Nc1c(O)[nH]c(=O)[nH]c1=O)c1ccccn1
[24] O=C(O)Cn1c2ccc(Cl)cc2c2nc3ccccc3nc21
compound no. | 17 | 18 | 19 | 20 | 21 | 22 | 23 | 24
GIV Gai3 FP | 105 | 83* | 102 | x | 106 | 77* | 105 | x
HCMV UL50-53 inh | -92 | -115 | -8 | 7 | x | -10 | -19 | -91
GIV-Gai FP conf | x | 59 | x | x | x | 66 | x | x
GIV Gai AS conf | x | 15097* | x | x | x | 12405* | x | x

[25] O=C(O)Cn1c2c(c3ccccc31)CSc1ccc(Cl)cc1-2
[26] O=C(CSC1=NC(=O)C(Cc2ccccc2)C(=O)N1)Nc1ccccc1Cl (centres undefined)
[27] O=C(NC1CCCCC1)C1(c2ccccc2)CCOCC1
[28] O=C(O)c1cccc(NC(=O)c2cccc(S(=O)(=O)Nc3cccc(C(=O)O)c3)c2)c1
[29] O=C(Nc1cccc(C(=O)Nc2ccc(S(=O)(=O)O)c3cc(S(=O)(=O)O)cc(S(=O)(=O)O)c23)c1)Nc1cccc(C(=O)Nc2ccc(S(=O)(=O)O)c3cc(S(=O)(=O)O)cc(S(=O)(=O)O)c23)c1
[30] O=C1CN(C(=O)CSCc2c(F)cccc2Cl)c2ccccc2N1
[31] CCCC(=O)N1CC(=O)Nc2ccccc21
[32] CCOC(=O)c1ccc(NC(=O)Nc2cccc(OCc3cc(=O)n4ccc(C)cc4n3)c2)cc1
compound no. | 25 | 26 | 27 | 28 | 29 | 30 | 31 | 32
GIV Gai3 FP | 86 | 107 | 114 | 95 | 0.1* | 90 | 101 | 85*
HCMV UL50-53 inh | x | x | x | x | -42 | -22 | -18 | x
GIV-Gai FP conf | 72 | x | x | x | 33* | 73 | x | 78
GIV Gai AS conf | 18488* | x | x | x | 3059* | 45374 | x | 34616

Single records, as listed above.
O=C(NC1CCCCC1)C1(c2ccccc2)CCOCC1 is entered as GIV Gai3 FP = 114; HCMV UL50-53 inh = x; GIV-Gai FP conf = x; GIV Gai AS conf = x
O=C(Nc1cccc(C(=O)Nc2ccc(S(=O)(=O)O)c3cc(S(=O)(=O)O)cc(S(=O)(=O)O)c23)c1)Nc1cccc(C(=O)Nc2ccc(S(=O)(=O)O)c3cc(S(=O)(=O)O)cc(S(=O)(=O)O)c23)c1 is entered as GIV Gai3 FP = 0.1*; HCMV UL50-53 inh = -42; GIV-Gai FP conf = 33*; GIV Gai AS conf = 3059*

Next entries follow:
[33] COc1ccc(C)cc1NC(=O)Nc1cccc(OCc2cc(=O)n3ccc(C)cc3n2)c1
[34] O=C(NCc1ccc(Cl)cc1)c1cnc2sc(N3CCOCC3)nn2c1=O
[35] O=C(/C=C/c1ccco1)/C=C/c1ccco1
[36] O=C(/C=C/c1ccccc1)/C=C/c1ccco1
[37] O=C1c2ccccc2C(=O)C1C(c1ccccc1)C1C(=O)c2ccccc2C1=O
[38] O=C(c1ccccc1)C1C(=O)c2ccccc2C1=O
[39] CCCCSc1nnc2c(n1)OC(c1cccs1)Nc1ccccc1-2 (centres undefined)
[40] CCCCSc1nnc2c(n1)OC(c1ccc(Br)s1)Nc1ccccc1-2 (centres undefined)
compound no. | 33 | 34 | 35 | 36 | 37 | 38 | 39 | 40
GIV Gai3 FP | 93 | 97 | 45* | 120 | 76* | 97 | 108 | 40*
HCMV UL50-53 inh | x | x | x | 10 | x | -38 | -24 | -17
GIV-Gai FP conf | x | x | 61 | x | 54 | x | x | 89
GIV Gai AS conf | x | x | 42048 | x | 5972* | x | x | 19457

[41] CC(C)C(C(=O)O)N1C(=O)/C(=C/c2ccccc2)SC1=S (centres undefined)
[42] O=C(O)C(c1ccccc1)N1C(=O)/C(=C/c2ccncc2)SC1=S (centres undefined)
[43] CC1(C)CC(=O)C2=C(C1)OC1=C(C(=O)CC(C)(C)C1)C2c1ccc(-c2ccccc2[N+](=O)[O-])o1
[44] N#C/C(=C/c1ccc(-c2cccc(C(F)(F)F)c2)o1)c1ccc(C(=O)O)cc1
[45] O=C(O)C(=Cc1ccc(-c2cccc(C(F)(F)F)c2)o1)C(=O)O
[46] c1ccc(-n2ncc3c(N4CCCCC4)ncnc32)cc1
[47] CN(C)c1ccc(C(=O)CC2(O)C(=O)N(Cc3cccc4ccccc34)c3ccccc32)cc1 (centres undefined)
[48] CCc1ccc2nc(N)sc2c1
compound no. | 41 | 42 | 43 | 44 | 45 | 46 | 47 | 48
GIV Gai3 FP | x | 80* | 102 | 111 | 84* | x | 105 | 100
HCMV UL50-53 inh | -72 | x | -22 | -52 | -16 | -11 | x | x
GIV-Gai FP conf | x | 76 | x | x | 67 | x | x | x
GIV Gai AS conf | x | 50305 | x | x | 15696* | x | x | x

[49] Nc1nc2ccc(CCC(=O)O)cc2s1
[50] COc1nonc1NC(C)=O
[51] CC(=O)NC1=CC(=O)c2nonc2C1=O
[52] O=C(CN1C(=O)CCCc2ccccc21)NCCN1CCN(c2cccc(Cl)c2)CC1
[53] CCOCCCNC(=O)Cn1cc2c(n1)-c1c(oc(C(=O)N3CCCC3)c1C)CC2
[54] CCn1cc2c(n1)-c1c(oc(C(=O)Nc3ccc(Cl)cc3)c1C)CC2
[55] CCn1cc2c(n1)-c1c(oc(C(=O)NCc3cccnc3)c1C)CC2
[56] COCCNC(=O)Cn1cc2c(n1)-c1c(oc(C(=O)N3CCCC3)c1C)CC2
compound no. | 49 | 50 | 51 | 52 | 53 | 54 | 55 | 56
GIV Gai3 FP | 57* | x | 4.4* | 109 | 97 | 81* | 83* | 70*
HCMV UL50-53 inh | 2 | 3 | 86* | -14 | x | x | x | x
GIV-Gai FP conf | 60* | x | 26* | x | x | 54 | 53 | 66*
GIV Gai AS conf | 3278* | x | 7791* | x | x | 16212* | 10636* | 26569

[57] CC(=O)Nc1ccc(NC(=O)c2oc3c(c2C)-c2nn(Cc4ccccc4Cl)cc2CC3)cc1
[58] Cc1cccc(CNC(=O)c2oc3c(c2C)-c2nn(Cc4cccc(Cl)c4)cc2CC3)c1
[59] O=C(O)c1ccc(N2CCOCC2)cc1
[60] CNCC(=O)Nc1ccccc1C(F)(F)F
[61] CCOC(=O)c1c(C)oc2nc(CN(c3ccc(OC)cc3)S(=O)(=O)c3cc(C)ccc3C)nc(N)c12
[62] COc1cccc(NC(C)C(=O)Nc2ccc(NC(C)=O)cc2)c1 (centres undefined)
[63] O=C1/C(=C/c2cccnc2)CCC/C1=C\c1cccnc1
[64] O=C1/C(=C/c2cccnc2)CC/C1=C\c1cccnc1
[65] O=C(CCN1C(=O)/C(=C/c2ccc3c(c2)OCO3)SC1=S)Nc1nc(-c2ccccc2)cs1
compound no. | 57 | 58 | 59 | 60 | 61 | 62 | 63 | 64 | 65
GIV Gai3 FP | 99 | 101 | 104 | x | x | x | 49* | 90 | 107
HCMV UL50-53 inh | 0 | 8 | -46 | -9 | -30 | 2 | 19 | x | -37
GIV-Gai FP conf | x | x | x | x | x | x | 53* | x | x
GIV Gai AS conf | x | x | x | x | x | x | 32981 | x | x
